# Values quoted from earlier work as cited in US11094527B2, “Wet clean solutions to prevent pattern collapse” (INTERNATIONAL BUSINESS MACHINES CORPORATION, priority 2018, dated 2021).
substance,measurement,value
n-butyl alcohol,Surface tension (at about 20° C.),24.6 mN/m
